Molecular target: CYP2C9 (Homo sapiens, UniProt P11712)

Sequences of proteins named here, by UniProt entry; tags and fusion partners are left off.
UniProt P11712, whole entry: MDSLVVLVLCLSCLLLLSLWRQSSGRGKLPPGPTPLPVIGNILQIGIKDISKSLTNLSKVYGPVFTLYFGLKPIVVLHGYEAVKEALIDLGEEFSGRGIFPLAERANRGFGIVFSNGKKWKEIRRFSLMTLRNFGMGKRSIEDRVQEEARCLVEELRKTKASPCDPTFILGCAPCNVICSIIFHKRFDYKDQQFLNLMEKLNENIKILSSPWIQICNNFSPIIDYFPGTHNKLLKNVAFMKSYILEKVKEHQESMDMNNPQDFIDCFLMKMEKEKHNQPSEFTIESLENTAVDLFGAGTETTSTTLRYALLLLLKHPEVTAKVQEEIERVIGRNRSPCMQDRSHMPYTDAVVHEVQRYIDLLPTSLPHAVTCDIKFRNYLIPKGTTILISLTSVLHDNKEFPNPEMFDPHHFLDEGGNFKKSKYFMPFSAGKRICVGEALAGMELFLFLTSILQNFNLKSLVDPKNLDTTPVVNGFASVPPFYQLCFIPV

Vmax,rhCYP (95% CI): 13.5 pmol/min∙pmol
SMILES: O=C(O)Cc1ccccc1Nc1c(Cl)cccc1Cl [Diclofenac, diclofenac]

— publication PMC8948939 (Pharmaceutics, 2022)
